Laboratory results as given in US8987239B2, “19-nor-steroid derivatives with a 15α,16α-methylene group and a saturated 17,17-spirolactone ring, use thereof, and medicaments containing said derivatives” (Bayer Intellectual Property GmbH, priority 2007, dated 2015).

Sequences of proteins named here, by UniProt entry; tags and fusion partners are left off. Residues count along the entry.
UniProt P06401, 679-913, species assumed: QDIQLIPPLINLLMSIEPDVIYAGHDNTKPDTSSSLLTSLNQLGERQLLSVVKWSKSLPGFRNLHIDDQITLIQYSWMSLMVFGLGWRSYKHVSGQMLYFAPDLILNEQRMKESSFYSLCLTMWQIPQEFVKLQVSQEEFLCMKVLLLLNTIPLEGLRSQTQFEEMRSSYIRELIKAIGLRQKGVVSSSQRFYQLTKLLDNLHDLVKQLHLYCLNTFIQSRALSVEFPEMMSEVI
UniProt P06401, whole entry, species assumed: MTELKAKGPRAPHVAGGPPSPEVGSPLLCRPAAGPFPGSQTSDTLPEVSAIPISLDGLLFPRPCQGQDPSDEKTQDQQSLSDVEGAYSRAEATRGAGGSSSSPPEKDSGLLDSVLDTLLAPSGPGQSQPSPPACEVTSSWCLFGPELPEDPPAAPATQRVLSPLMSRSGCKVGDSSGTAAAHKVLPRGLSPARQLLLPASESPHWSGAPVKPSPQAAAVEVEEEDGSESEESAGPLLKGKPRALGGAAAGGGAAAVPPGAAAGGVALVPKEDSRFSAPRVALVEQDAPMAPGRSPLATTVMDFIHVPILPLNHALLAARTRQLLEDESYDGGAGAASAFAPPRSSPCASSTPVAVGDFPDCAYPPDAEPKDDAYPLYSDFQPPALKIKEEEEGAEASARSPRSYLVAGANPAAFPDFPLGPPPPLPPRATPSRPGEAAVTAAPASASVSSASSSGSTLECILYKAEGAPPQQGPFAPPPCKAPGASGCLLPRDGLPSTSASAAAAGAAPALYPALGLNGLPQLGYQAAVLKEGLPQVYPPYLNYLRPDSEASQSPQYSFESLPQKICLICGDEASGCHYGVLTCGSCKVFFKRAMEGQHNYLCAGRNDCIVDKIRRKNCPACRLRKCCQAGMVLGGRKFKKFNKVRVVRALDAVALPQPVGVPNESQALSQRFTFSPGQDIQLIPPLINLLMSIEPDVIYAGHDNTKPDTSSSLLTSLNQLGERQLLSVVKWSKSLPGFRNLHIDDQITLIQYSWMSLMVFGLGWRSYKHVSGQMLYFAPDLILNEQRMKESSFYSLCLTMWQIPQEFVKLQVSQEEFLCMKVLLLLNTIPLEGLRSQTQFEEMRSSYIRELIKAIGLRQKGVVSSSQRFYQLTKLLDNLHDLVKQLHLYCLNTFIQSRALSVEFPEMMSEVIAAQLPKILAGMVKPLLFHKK

Legend:
progesterone receptor [1] = molecular target: T1, progesterone receptor (Homo sapiens (Human), UniProt P06401); assay: Progestational action by transactivation test (CHO K1 reporter cells, luciferase); type: cell-based
Description: 4. Determination of Progestational Action by Means of Transactivation Tests:
The test compounds were added eight hours later, and the cells were incubated with the compounds for 16 hours. The tests were carried out in triplicate. At the end of incubation the medium containing the effector was removed and replaced with lysis buffer. After luciferase assay substrate (Promega, #E1501) had been added, the 96-well plates were then put in a microplate luminometer (Pherastar, BMG labtech), and the luminescence was measured. The IC50 values were evaluated using software for calculating dose-effect relations.

progesterone receptor [2] = molecular target: T1, progesterone receptor; assay: Progesterone receptor binding test (displacement of 3H-progesterone); details: for Receptor binding Progesterone receptor Competition factor: CF relative to progesterone (=1), CF <1 means higher affinity; for CF PR/CF MR: ratio of competition factors, progesterone receptor to mineralocorticoid receptor; for IC50: read-out: Receptor binding Progesterone receptor IC50, cytosol from PR-expressing insect cells (Hi5), 3H-progesterone

| SMILES | EC50 (progesterone receptor [1]) | Receptor binding Progesterone receptor Competition factor (progesterone receptor [2]) | CF PR/CF MR (progesterone receptor [2]) | IC50 (progesterone receptor [2]) |
| --- | --- | --- | --- | --- |
| C[C@]12CCC3C4CCC(=O)C=C4CCC3C1C1CC1[C@@]21CCC(=O)O1 (stereo partly drawn) [Example 1, 17β-Hydroxy-15α,16α-methylene-19-nor-17α-pregna-4-en-3-one-21-carboxylic acid γ-lactone] | 0.1 nM | 0.74 | 0.41 | 15 nM |
| CC1CC2=CC(=O)CCC2C2CC[C@@]3(C)C(C4CC4[C@@]34CCC(=O)O4)C12 (stereo partly drawn) [Example 3, 17β-Hydroxy-7α-methyl-15α,16α-methylene-19-nor-17α-pregna-4-en-3-one-21-carboxylicacid γ-lactone] | 0.6 nM | 0.60 | 0.46 | 12.1 nM |
